{"source": "ChEMBL document CHEMBL1156775", "about": "(J Med Chem, 2010)", "key": {"[1]": {"species": "Homo sapiens", "assay": "Selectivity ratio of Ki for human kappa opioid receptor to Ki for human mu opioid receptor"}, "[2]": {"species": "Homo sapiens", "assay": "Selectivity ratio of Ki for human delta opioid receptor to Ki for human mu opioid receptor"}}}
{"compound": "Ic1ccc(CNc2ccc3c(c2)[C@@]24CCCC[C@H]2[C@@H](C3)N(CC2CC2)CC4)cc1", "values": [{"measurement": "Ratio Ki", "setting": "[1]", "value": 1.1}, {"measurement": "Ratio Ki", "setting": "[2]", "value": 48}]}
